Measured values published in article PMC12662848, “Phase Ib study of enzalutamide with venetoclax in patients with metastatic castration-resistant prostate cancer” (Cancer Chemotherapy and Pharmacology, 2025).

Settings: male, human, in vivo
Protocol: Additional samples were collected prior to dosing on days 8, 15, 21, and 57 (Fig. 1A). Samples were centrifuged at approximately 1,000 × g, and plasma was stored at −70 °C or colder until analysis.
Plasma PK parameters were derived from the data by non-compartmental methods with WinNonlin (Certara, Princeton, NJ). Statistical analyses for PK parameter values were performed using SPSS 27.0 for Windows (SPSS Inc., Chicago, IL). Within patient variability in Cmin was calculated from the day 8 through day 57 data across doses by calculating 100 × the square root of the mean square within groups obtained after ANOVA of log-transformed values of these parameters with subject as a factor.

ENZA Cmin D0: 11.7 (1.19) µg/mL | MR (metabolic ratio) D0: 0.94 (1.43) | MR (metabolic ratio) D1 (24 h): 0.95 (1.48)
Compound: CNC(=O)c1ccc(N2C(=S)N(c3ccc(C#N)c(C(F)(F)F)c3)C(=O)C2(C)C)cc1F [enzalutamide]
